Laboratory results reported in ChEMBL document CHEMBL4000146, “Synthesis, antiplasmodial activity and mechanistic studies of pyrimidine-5-carbonitrile and quinoline hybrids” (Eur J Med Chem, 2015).

Tests used:
Heme [1] = system: Heme
Heme [2] = system: Heme; remark: listed apart in the source

For `CSc1nc(NCCCCNc2ccnc3cc(Cl)ccc23)c(C#N)c(-c2cccc([N+](=O)[O-])c2)n1`, the logKa (Heme [1]) was 5.54, the logKa (Heme [2]) was 5.08 and the logKa (mu-oxodimeric heme) was 5.86.
